Measurements taken from patent publication US20030036631A1 (published 2003).

Molecular target: T1, SHP-1 from cell lysates (UniProt P29350)
T1 construct: Detected on the blot with mouse anti-SHP-1
Experiment: GST pull-down from cell lysates, Western blot with anti-SHP-1
Experimental: To determine if the cytoplasmic domain of Siglec-10 binds SHP-1 and SHP-2 in cell lysates, 10 μg of GST fusion protein +/−tyrosine phosphorylation were incubated with 300 μl of cell lysate (Triton-X-100-soluble fraction 5×10⁷ unstimulated cells) at 4° C. overnight. The GST fusion protein complexes were captured with 50 μl of glutathione-sepharose beads (Amersham Pharmacia Biotech) for 1 hr at 4° C. The beads were then incubated with Jurkat cell lysates. The beads were washed three times with ice cold lysis buffer, and bound proteins were eluted in SDS reducing sample buffer and resolved by electrophoresis on an SDS-polyacrylamide gel. The separated proteins were transferred to nitrocellulose by standard western blotting techniques. The blots were then stained for proteins containing phosphorylated tyrosines using anti-P-Y HRP-conjugated antibody (Clone 4G10, Upstate Biotechnology, Lake Placid, N.Y.). Blots were then stripped and stained with either mouse anti-SHP-1 (Transduction Laboratories, Lexington, Ky.) or mouse anti-SHP-2 (Transduction Laboratories) followed by an HRP-conjugated secondary antibody (goat anti-mouse, Biosource Int., Camarillo, Calif.) Stained proteins were imaged by adding a chemiluminescent detection reagent (Renaissance, NEN Bio Products, Boston, Mass.) and exposing to film (Kodak).

binding result: no binding
B1: Y667F mutant of the GST-SIGLEC-BMS-L3 cytoplasmic tail, as used in the SHP pull-down (other)
chain: MSPILGYWKIKGLVQPTRLLLEYLEEKYEEHLYERDEGDKWRNKKFELGLEFPNLPYYIDGDVKLTQSMAIIRYIADKHNMLGGCPKERAEISMLEGAVLDIRYGVSRIAYSKDFETLKVDFLSKLPEMLKMFEDRLCHKTYLNGDHVTHPDFMLYDALDVVLYMDPMCLDAFPKLVCFKKRIEAIPQIDKYLKSSKYIAWPLQGWQATFGGGDHPPKSDLVPRGSPNSKRRTQTETPRPRFSRHSTILDYINVVPTAGPLAQKKATPNSPRTPLPPGAPSPESKKNQKKQYQLPSFPEPKSSTQAPESQESQEELHFATLNFPGVRPRPEARMPKGTQADYAEVKFQ
modifications: tyrosine phosphorylated (GST fusion protein +/- tyrosine phosphorylation); the phosphorylated sites are not listed
notes: The same construct as m3, as used in the pull-down from cell lysates; also called Y667F mutant sample; L3cyto-Y667F
